Values quoted from earlier work, collected in patent US7183290B2 (dated 2007).

Sequences of proteins named here, by UniProt entry; tags and fusion partners are left off. A change or cut given only in a name is not applied to a line headed by its entry.
UniProt P14740: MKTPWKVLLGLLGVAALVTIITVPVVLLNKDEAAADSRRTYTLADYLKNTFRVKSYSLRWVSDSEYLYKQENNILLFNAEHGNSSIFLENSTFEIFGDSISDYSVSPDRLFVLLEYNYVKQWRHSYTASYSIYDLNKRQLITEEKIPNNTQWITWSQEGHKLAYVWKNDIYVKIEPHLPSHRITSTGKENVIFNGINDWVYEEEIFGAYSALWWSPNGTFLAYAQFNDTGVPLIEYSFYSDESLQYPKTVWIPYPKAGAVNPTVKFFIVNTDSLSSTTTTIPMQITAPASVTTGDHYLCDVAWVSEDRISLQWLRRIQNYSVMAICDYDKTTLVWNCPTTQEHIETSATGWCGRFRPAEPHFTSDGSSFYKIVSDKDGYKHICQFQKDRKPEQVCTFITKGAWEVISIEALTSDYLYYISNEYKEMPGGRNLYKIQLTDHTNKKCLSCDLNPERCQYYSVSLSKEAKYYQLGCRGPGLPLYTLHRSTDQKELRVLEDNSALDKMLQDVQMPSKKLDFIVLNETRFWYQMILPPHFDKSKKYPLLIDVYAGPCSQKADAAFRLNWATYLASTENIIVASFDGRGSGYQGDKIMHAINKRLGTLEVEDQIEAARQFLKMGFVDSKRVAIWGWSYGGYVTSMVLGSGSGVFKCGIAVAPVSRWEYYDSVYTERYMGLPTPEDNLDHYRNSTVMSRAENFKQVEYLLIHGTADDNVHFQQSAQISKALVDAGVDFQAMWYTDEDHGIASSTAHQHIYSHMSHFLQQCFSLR

Biological target: DPP-IV (Rattus norvegicus, UniProt P14740)
Settings: obese Zucker rats; Diabetologia 42: 1324–1331

In the case of NVP-DPP728, the oral glucose tolerance is listed as “improves oral glucose tolerance” and the “plasma GLP-1 (2-36 amide) concentrations” value is listed as “increases plasma GLP-1 (2-36 amide) concentrations”.
